Where two headings read alike, the source gives them in different places.
Target: T1, farnesyl protein transferase (FPT) (Rattus norvegicus, UniProt Q02293+Q04631)
T1 construct: were partially purified from rat brain by ammonium sulfate fractionation followed by Q-Sepharose; from tissue; host or cells: rat brain
Test: In vitro enzyme assay: inhibition of farnesyl protein transferase (transfer of [3H]farnesyl to Ras-CVLS)
Format: biochemical
Experimental: • 1. In vitro enzyme assays: Inhibition of farnesyl protein transferase and geranylgeranyl protein transferase. […] Human farnesyl protein transferase was also expressed in E. coli, using cDNA clones encoding both the a and b subunits. […] Human farnesyl protein transferase was partially-purified from the soluble protein fraction of E. coli as described above. […] Two forms of val^12-Ha-Ras protein were prepared as substrates for these enzymes, differing in their carboxy terminal sequence. One form terminated in cysteine-valine-leucine-serine (Ras-CVLS) the other in cystein-valine-leucine-leucine (Ras-CVLL). Ras-CVLS is a substrate for the farnesyl protein transferase while Ras-CVLL is a substrate for geranylgeranyl protein transferase I. The cDNAs encoding these proteins were constructed so that the proteins contain an amino-terminal extension of 6 histidine residues. Both proteins were expressed in Escherichia coli and purified using metal chelate affinity chromatography. The radiolabelled isoprenyl pyrophosphate substrates, [^3H]farnesyl pyrophosphate and [^3H]geranylgeranyl pyrophosphate, were purchased from DuPont/New England Nuclear. […] The reaction was allowed to proceed for 30 minutes at room temperature and then stopped with 0.5 ml of 4% sodium dodecyl sulfate (SDS) followed by 0.5 ml of cold 30% TCA. Samples were allowed to sit on ice for 45 minutes and precipitated Ras protein was then collected on GF/C filter paper mats using a Brandel cell harvester. […] Percent inhibition was calculated relative to the DMSO vehicle control. The geranylgeranyl protein transferase I assay was essentially identical to the farnesyl protein transferase assay described above, with two exceptions: [^3H]geranylgeranylpyrophosphate replaced farnesyl pyrophosphate as the isoprenoid donor and Ras-CVLL was the protein acceptor. […] Cell-Based Assay: Transient expression of val^12-Ha-Ras-CVLS and val^12-Ha-Ras-CVLL in COS monkey kidney cells: Effect of farnesyl protein transferase inhibitors on Ras processing and on disordered cell growth induced by transforming Ras. COS monkey kidney cells were transfected by electroporation with the plasmid pSV-SPORT (Gibco/BRL) containing a cDNA insert encoding either Ras-CVLS or Ras-CVLL, leading to transient overexpression of a Ras substrate for either farnesyl protein transferase or geranylgeranyl protein transferase I, respectively (see above). Following electroporation, cells were plated into 6-well tissue culture dishes containing 1.5 ml of Dulbecco's-modified Eagle's media (GIBCO, Inc.) supplemented with 10% fetal calf serum and the appropriate farnesyl protein transferase inhibitors. After 24 hours, media was removed and fresh media containing the appropriate drugs was re-added. 48 hours after electroporation cells were examined under the microscope to monitor disordered cell growth induced by transforming Ras. Cells expressing transforming Ras become more rounded and refractile and overgrow the monolayer, reminiscent of the transformed phenotype. Cells were then photographed, washed twice with 1 ml of cold phosphate-buffered saline (PBS) and removed from the dish by scraping with a rubber policeman into 1 ml of a buffer containing 25 mM Tris, pH 8.0; 1 mM ethylenediamine tetraacetic acid; 1 mM phenylmethylsulfonyl fluoride; […] leupeptin; and 0.1 mM pepstatin. Cells were lysed by homogenization and cell debris was removed by centrifugation at 2000 x g for 10 min. […]

The chains behind the UniProt entries cited, without tags or fusion partners.
UniProt Q02293, whole entry: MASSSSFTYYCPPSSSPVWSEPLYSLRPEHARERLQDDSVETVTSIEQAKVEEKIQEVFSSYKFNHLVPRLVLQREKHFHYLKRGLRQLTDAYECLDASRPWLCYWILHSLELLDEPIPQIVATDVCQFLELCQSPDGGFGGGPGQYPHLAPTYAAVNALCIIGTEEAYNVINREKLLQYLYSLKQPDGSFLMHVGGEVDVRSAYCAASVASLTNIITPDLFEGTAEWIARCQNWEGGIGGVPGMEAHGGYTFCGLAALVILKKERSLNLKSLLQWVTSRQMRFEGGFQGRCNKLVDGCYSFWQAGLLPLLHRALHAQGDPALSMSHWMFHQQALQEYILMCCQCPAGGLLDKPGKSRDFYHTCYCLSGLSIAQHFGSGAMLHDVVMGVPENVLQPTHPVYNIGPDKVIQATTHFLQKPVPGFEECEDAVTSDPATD

[1] = FPT IC50, Table 1, partially purified rat brain FPT
[2] = Table 1, partially purified rat brain FPT, read-out: FPT IC50

| SMILES | IC50 [1] [nM] | IC50 [2] [nM] |
| --- | --- | --- |
| NC(=O)N1CCC(CC(=O)N2CCC(=C3c4ncc(Br)cc4CCc4cc(Cl)cc(Br)c43)CC2)CC1 (racemic) [Example 8] | 21 | – |
| NC(=O)N1CCC(CC(=O)N2CCC(=C3c4ncc(Br)cc4CCc4cc(Cl)cc(Br)c43)CC2)CC1 (single isomer, unassigned) [Example 8A] | > 94 | – |
| NC(=O)N1CCC(CC(=O)N2CCC([C@@H]3c4ncc(Br)cc4CCc4cc(Cl)cc(Br)c43)CC2)CC1 [Example 10A] | – | > 94 |
| NC(=O)N1CCC(CC(=O)N2CCC(C3c4ncc(Br)cc4CCc4cc(Cl)cc(Br)c43)CC2)CC1 (centres unmarked) [Example 10B] | 3 | – |
| NC(=O)N1CCC(CC(=O)N2CCC(C3c4ncc(Br)cc4CCc4cc(Cl)cc(Br)c43)CC2)CC1 (centres unmarked) [Example 10] | – | 1.9 |

Source: patent publication EP1019392B1, “TRICYCLIC AMIDES USEFUL FOR INHIBITION OF G-PROTEIN FUNCTION AND FOR TREATMENT OF PROLIFERATIVE DISEASES” (SCHERING CORPORATION, priority 1995, dated 1997)
